Measured values: patent publication US20220280427A1, “LIPID NANOPARTICLE COMPOSITIONS COMPRISING CLOSED-ENDED DNA AND CLEAVABLE LIPIDS AND METHODS OF USE THEREOF” (Generation Bio Co., priority 2019, published 2022)

How the values were obtained:
[1] = tested on: cytokines; assay: Serum cytokine release in CD-1 mice (Example 9); type: in vivo; settings: ss-OP4:ceDNA-luc + DexP groups, all groups tested with DexPalm
Procedure: Dose Administration: Test articles for Groups 1-7 were dosed at 5 mL/kg on Day 0 by IV administration via lateral tail vein. Test articles for Group 8 were dosed at 5 mL/kg on Day 1 by IV administration via lateral tail vein. The dose level of 2.0 mg/kg or 0.75 mg/kg was determined after the 6 and 24 hour clinical observations of Group 7. If any adverse effects are seen the lower dose was administered.
Blood Collection: All animals had blood collected on Day 0 & 1 and Day 1 & 2 per table Sample Collection table above. After each collection animals received 0.5-1.0 mL lactated Ringer's, subcutaneously.
Whole blood for serum was collected by tail-vein nick, saphenous vein or orbital sinus puncture (under inhalant isoflurane per facility SOPs). Whole blood was collected into a serum separator with clot activator tube and processed into one (1) aliquot of serum per facility SOPs. All samples were stored at nominally −70° C.

[2] = tested on: IFNα, IFNγ, IL-18, IL-6, TNFα, IP-10, MCP-1, MIP1α, MIP1β, RANTES; assay: Serum cytokine and chemokine levels in CD-1 mice (Example 7); type: in vivo; settings: co-formulated with ceDNA-luc in ss-Paz3 LNPs, serum 6 hours after dosing, 0.5 mg/kg IV
Procedure: Briefly, ceDNA-luc was formulated in LNPs containing SS-cleavable lipids and MC3 as described above and dosed at 0.5 mg/kg IV into male CD-1 mice. In one LNP, dexamethasone palmitate was included and co-formulated with ceDNA-luc in the ss-Paz3 (ssPalmE-Paz4-C2; also known as SS-33/1PZ-21) LNPs. As mentioned above, the numbers 3 and 4, as in ss-OP3 and ss-OP4; or in ss-Paz3 and ss-Paz4, represent total lipid components in LNP formulation. For example, ss-OP3 LNP contains three different lipid components: ss-OP, cholesterol and PEG-DMG. Similarly, ss-OP4 LNP has four different lipid components: ss-OP, DOPC, cholesterol and PEG-DMG. Dexamethasone palmitate (DexPalm) is an anti-inflammatory agent that inhibits leukocytes and tissue macrophages, and reduces inflammatory response. […]
The study details are set forth below. […] Body weights for all animals were be recorded on Days 0, 1, 2, 3, 7, 14, 21 and 28 (prior to euthanasia). Additional body weights were recorded as needed. ceDNA were supplied in a concentration stock (0.5 mg/mL). […] On Days 3, 7, 14 (optional Days 21 and 28), remaining animals in Groups 1-11 were dosed with luciferin at 150 mg/kg (60 mg/mL) via intraperitoneal (IP) injection at 2.5 mL/kg. ≤15 minutes post each luciferin administration Luminescence was obtained by using in vivo imaging system (IVIS) imaging as described below. […]

Dexamethasone palmitate
effect of dexamethasone palmitate on cytokines [1]: further reductions in some cytokines
effect of dexamethasone palmitate in the LNP formulation on cytokines [2]: further reductions in some cytokines
effect of dexamethasone palmitate in the LNP formulation on cytokines ([2]; listed as dexamethasone palmitate): beneficial effects
